The target of the assay is cGMP-specific 3',5'-cyclic phosphodiesterase (Homo sapiens, UniProt O76074).

Consider 1 molecule from ChEMBL document CHEMBL1135239, “Imidazo[5,1-f]triazin-4(3H)-ones, a new class of potent PDE 5 inhibitors” (Bioorg Med Chem Lett, 2002).

As usually defined, the IC50 is the midpoint of a concentration-inhibition curve. A low value points to greater potency. The molecule `CCCOc1ccc(S(=O)(=O)N2CCN(C)CC2)cc1-c1nc2c(ncn2CCC)c(=O)[nH]1` came in with an IC50 of 10 nM.
